Measured values: article PMC10133546, “Simultaneous determination of multiple components in rat plasma by UHPLC-sMRM for pharmacokinetic studies after oral administration of Qingjin Yiqi Granules” (Frontiers in Pharmacology, 2023)
One block for each molecule: values may come before it.

Tests used:
[1] = Stability of analytes in rat plasma (auto-sampler, freeze-thaw, room temperature, long-term); details: for Autosampler for 24 h Accuracy (%): autosampler 24 h; for Room temperature for 24 h Accuracy (%): room temperature 24 h; for Freeze thaw cycles Accuracy (%): three freeze-thaw cycles
[2] = Stability of the working solution (4°C for 1 month); type: physicochemical

Autosampler for 24 h Accuracy (%) ([1]; 12.5 ng/mL): 101.0% | Room temperature for 24 h Accuracy (%) ([1]; 50 ng/mL): 101.0% | Freeze thaw cycles Accuracy (%) ([1]; 50 ng/mL): 104.0% | Freeze thaw cycles Accuracy (%) ([1]; 100 ng/mL): 101.0% | Freeze thaw cycles Accuracy (%) ([1]; 500 ng/mL): 102.0%
SMILES: O=C1C[C@@H](c2ccc(O)cc2)Oc2cc(O)cc(O)c21 [naringenin]

Room temperature for 24 h Accuracy (%) ([1]; concentration 12.5 ng/mL): 101.0% | Freeze thaw cycles Accuracy (%) ([1]; concentration 50 ng/mL): 102.0% | Freeze thaw cycles Accuracy (%) ([1]; concentration 100 ng/mL): 101.0% | Working solution Accuracy (%) ([2]; concentration 12.5 ng/mL): 101.0%
SMILES: CC1(C)[C@@H](O[C@H]2O[C@H](C(=O)O)[C@@H](O)[C@H](O)[C@H]2O[C@@H]2O[C@H](C(=O)O)[C@@H](O)[C@H](O)[C@H]2O)CC[C@]2(C)[C@H]3C(=O)C=C4[C@@H]5C[C@@](C)(C(=O)O)CC[C@]5(C)CC[C@@]4(C)[C@]3(C)CC[C@@H]12 [glycyrrhizic acid]

SMILES: O=c1c(O[C@@H]2O[C@H](CO)[C@H](O)[C@H](O)[C@H]2O)c(-c2ccc(O)c(O)c2)oc2cc(O)cc(O)c12 [hyperoside]
Room temperature for 24 h Accuracy (%) ([1]; 12.5 ng/mL): 102.0% | −80°C for 1month Accuracy (%) ([1]; 500 ng/mL, −80°C 1 month): 102.0% | Working solution Accuracy (%) ([2]; 1.56 ng/mL): 97.6%

SMILES: O=c1cc(-c2ccccc2)oc2cc(O)c(O)c(O)c12 [baicalein]
Freeze thaw cycles Accuracy (%) ([1]; 50 ng/mL): 96.3% | Room temperature for 24 h Accuracy (%) ([1]; 100 ng/mL): 95.6%

SMILES: O=C(O)[C@H]1O[C@@H](Oc2cc3oc(-c4ccc(O)cc4)cc(=O)c3c(O)c2O)[C@H](O)[C@@H](O)[C@@H]1O [scutellarin]
Autosampler for 24 h Accuracy (%) ([1]; 50 ng/mL): 102.0% | Freeze thaw cycles Accuracy (%) ([1]; 50 ng/mL): 102.0%

SMILES: COc1cc(/C=C/C(=O)O)ccc1O [ferulic acid]
Room temperature for 24 h Accuracy (%) ([1]; 500 ng/mL): 89.2% | Freeze thaw cycles Accuracy (%) ([1]; 500 ng/mL): 102.0%
